Reference: patent US20090220982A1, “COMPOSITIONS AND METHODS FOR DETERMINING NEPHROTOXICITY” (Achaogen Inc.., priority 2008, published 2009)

Settings: rat
Source text: The rat in vivo assays provided information in the form of acute toxicity, changes in Blood Urea Nitrogen (BUN) and serum creatinine levels over time, as well as histopathology changes in the kidneys of animals sacrificed at the end of the study. Elevation in BUN or serum creatinine is one of the markers routinely monitored in the clinic as an indication of aminoglycoside nephrotoxicity.

Substance: neomycin
- rank order of relative in vivo nephrotoxicity: followed by amikacin, neomycin, and gentamicin
